The results in this text go back to patent US7074412B2, “Pharmaceutical composition” (The University of Zurich, priority 2003, dated 2006).

The test system of the experiment is standardized defects in the calvarial bone of rabbits. Briefly: bone regeneration in standardized calvarial bone defects (guided bone regeneration). The class given is in vivo, New Zealand white rabbits. The settings on record: same animal model, comparable to NMP treated PLGA membrane; results not shown. The text has this:
The size of the defect was below the critical size defect and was selected to resemble the typical magnitude of an osteotomy gap in maxillofacial surgery and defects in dentistry [Klinge, B., et al., J Oral Maxillofac Surg 50 (1992) 241–249].
The digital image of the vertical section from the middle of the defect was taken with a scale (mm) in order to localize the defect margins, which were 6 mm apart. In combination with the calvarial bone thickness of the surrounding bone the total area of the defect could be reconstructed. Using the Adobe Photoshop 5.0 program the total pixel number of the defect area could be determined. The part of the total defect filled by bone was also determined and expressed by the pixel number of the bony area. Percentage of bone healing was calculated as follows:
Bone healing [%]=pixel number of the bone area×100/total pixel number of defect.
To evaluate the bone regeneration, standardized defects were generated in the calvarial bone of rabbits. New Zealand white rabbits (3.5–4.0 kg) were treated according to the guidelines of the local authorities. The protocol for these studies was approved and controlled by the kantonalem Verterinäramt, Zurich. After sedation four 6 mm craniotomy defects were created with a 6 mm trephine in a dental hand piece. To seal the defects from the dural side 6.1 mm in diameter membrane was poked through the calvarial bone. […]

On to “rhBMP-2: osteoinductive recombinant bone morphogenetic protein 2, set forth in SEQ ID NO:1”, for which the “amount needed to obtain a comparable magnitude of bone regeneration” value was 15 µg.
